Among the data in PubChem BioAssay AID435022 (Sanford-Burnham Center for Chemical Genomics, 2010) are inhibition values, retold here.

The list shows a part of the results, in another mix than the full data. Some structures show a salt or complex split into parts, the way the source records it. The source made the active and inactive calls. Rule as the data show it: active = inhibition above about 35%; inactive = the rest.

The test can be described thus: inhibitors of PMA/ionomycin-induced NF-kB reporter, 697 cells, primary screen, B-cell NF-kB inhibitor project, cell-based, luminescence, uHTS (AID 435022). The conditions noted are these: 697 B-cell NF-kB luciferase reporter, 16 h, at 4 µM, stronger effect = higher value.
As for `CP(=O)(OCCOc1ccccc1)OCCOc1ccccc1`, the inhibition (usually the relative decrease from the control value, in per cent) was inactive: 7.11%.
For `CP(=O)(Nc1ccc(Cl)cc1Cl)Oc1ccccc1` (configuration not stated) the value was inactive: 7.21%.
For `Cc1nc2ccc3ccccc3c2o1.O=[N+]([O-])c1cc([N+](=O)[O-])c(O)c([N+](=O)[O-])c1` the value was inactive: 7.63%.
`COc1ccc(OP(C)(=O)Nc2ccccc2Br)cc1` (configuration not stated): the inhibition is inactive: 8.44%.
For `COc1ccccc1OP(C)(=O)Nc1ccc(C)c(C)c1` (configuration not stated) the value was inactive: 18.9%; for `Cc1cc(C)cc(OP(C)(=O)Nc2cccc(C(F)(F)F)c2)c1` (configuration not stated), inactive: 17.1%.
Regarding `CCc1ccc(OP(C)(=O)O)cc1`, the inhibition was inactive: 11%.
For the molecule `CP(=O)(Nc1ccccn1)Oc1ccccc1` (configuration not stated), the inhibition was inactive: 22.9%.
Turning to `COc1ccccc1OP(C)(=O)Nc1ccc(C)cc1C` (configuration not stated), the inhibition is inactive: -2.01%.
For `O=[N+]([O-])c1cc([N+](=O)[O-])c(Nc2ccccn2)c([N+](=O)[O-])c1` the value was inactive: 6.53%; for `Cc1c(NP(C)(=O)Oc2ccc(C(C)C)cc2)c(=O)n(-c2ccccc2)n1C` (configuration not stated), inactive: -2.72%.
The figure for `CN(C)CCOC(=O)C(O)(c1ccccc1)C1CCCC1` (configuration not stated) is inactive: -1.94%.
The figure for `COc1ccc(OP(C)(=O)Nc2ccccn2)cc1` (configuration not stated) is inactive: 13.1%; for `COc1ccccc1OP(C)(=O)Nc1ccc(Br)cc1` (configuration not stated) it is inactive: 19.7%; for `CN(C)C(=O)c1c([N+](=O)[O-])cc([N+](=O)[O-])cc1[N+](=O)[O-]` it is inactive: 6.08%.
As to `CP(=O)(Nc1ccc(Cl)cc1)Oc1ccc(F)cc1` (configuration not stated), the inhibition is inactive: -17.6%.
The figure for `CC(C)(C)c1ccc(OP(C)(=O)O)cc1` is inactive: -4.93%.
For `COc1ccccc1OP(C)(=O)Nc1ccccc1Br` (configuration not stated) the value was inactive: 21.3%; for `CP(=O)(Oc1ccccc1)N1CCOC1=O` (configuration not stated), inactive: -7.49%.
The figure for `CCc1ccc(OP(C)(=O)Nc2cccnc2)cc1` (configuration not stated) is inactive: 14%; for `COc1ccccc1OP(C)(=O)Nc1c(C)n(C)n(-c2ccccc2)c1=O` (configuration not stated) it is inactive: 7.97%; for `O=C(OCCCN1CCCC1)C(O)(c1ccccc1)C1CCCCC1` (configuration not stated) it is inactive: 7.75%.
With `CCN(CC)CC(O)COC(=O)C(O)(c1ccccc1)C1CCCCC1` (configuration not stated), the inhibition was inactive: -15.6%.
Regarding `COc1ccc(OP(C)(=O)Nc2ccc(Br)cc2)cc1` (configuration not stated), the inhibition is inactive: 25.9%.
The figure for `CP(=O)(OC12CC3CC(CC(C3)C1)C2)OC12CC3CC(CC(C3)C1)C2` is inactive: 10.6%; for `CCOC(=O)c1ccc(NP(C)(=O)Oc2ccc(Cl)cc2)cc1` (configuration not stated) it is inactive: 7.58%; for `Nc1ccc2c(ccc3cccnc32)n1.O=[N+]([O-])c1cc([N+](=O)[O-])c(O)c([N+](=O)[O-])c1` it is inactive: -16.7%.
The figure for `O=[N+]([O-])c1cc([N+](=O)[O-])c(NCC2CCS(=O)(=O)C2)c([N+](=O)[O-])c1` (configuration not stated) is inactive: -12.3%; for `COc1ccc(NP(C)(=O)Oc2ccccc2OC)cc1` (configuration not stated) it is inactive: 7.63%; for `CN(C)CCOC(=O)C(O)(c1ccccc1)C1CCCCC1` (configuration not stated) it is inactive: 14.1%.
On to `COc1ccc(OP(C)(=O)Nc2cccc(Br)c2)cc1` (configuration not stated), for which the inhibition is inactive: 9.41%.
As for `Cc1ccccc1NP(C)(=O)Nc1ccccc1C`, the inhibition is inactive: -14.5%.
With `CP(=O)(Nc1ccc2c(c1)OCCO2)Oc1ccccc1` (configuration not stated), the inhibition is inactive: 0.0513%.
With `CCOP(C)(=S)SCC(=O)NC(C)(CC)C(=O)O` (configuration not stated), the inhibition was inactive: -16.3%.
As to `CP(=O)(Nc1ccc(SC(F)(F)F)cc1)Oc1ccc(F)cc1` (configuration not stated), the inhibition is inactive: 9.77%.
As for `COc1ccc2c(c1O)-c1c(O)c(OC)cc3c1[C@H](C2)[N+](C)(C)CC3.O=[N+]([O-])c1cc([N+](=O)[O-])c([O-])c([N+](=O)[O-])c1[O-]`, the inhibition was inactive: -9.85%.
Regarding `O=C(OCCN1CCN(CCOCc2ccccc2)CC1)C(O)(c1ccccc1)c1ccccc1`, the inhibition is inactive: 3.85%.
On to `O=C(OC1CN2CCC1CC2)c1ccc([N+](=O)[O-])cc1` (configuration not stated), for which the inhibition was inactive: 2.18%.
For `CC(C)c1ccc(OP(C)(=O)Nc2ccc(SC(F)(F)F)cc2)cc1` (configuration not stated), the inhibition was inactive: -11.5%.
For `CP(=O)(Nc1ccccc1F)Oc1ccccc1` (configuration not stated) the value was inactive: 15.8%; for `O=[N+]([O-])c1cc([N+](=O)[O-])c(OC2CCCCC2O)c([N+](=O)[O-])c1` (configuration not stated), inactive: -10.6%.
Take `CCCCCOc1ccc(NP(C)(=O)Oc2ccc(Cl)cc2Cl)cc1` (configuration not stated): the inhibition was inactive: 16.7%.
The figure for `CP(=O)(Nc1ccccc1)Oc1ccc(F)cc1` (configuration not stated) is inactive: 8.32%; for `CCN(CC)CCCOC(=O)C(O)(c1ccccc1)C1CCCCC1` (configuration not stated) it is inactive: 1.28%; for `COc1ccc(OP(C)(=O)Nc2ccc(SC(F)(F)F)cc2)cc1` (configuration not stated) it is inactive: 9.94%.
Turning to `CCOC(=O)c1ccc(NP(C)(=O)Oc2ccc(F)cc2)cc1` (configuration not stated), the inhibition was inactive: -2.58%.
The figure for `CC1=NCCc2c1[nH]c1ccccc21.O=[N+]([O-])c1cc([N+](=O)[O-])c(O)c([N+](=O)[O-])c1` is inactive: 13.7%.
`O=C(O)c1cccc(Nc2c([N+](=O)[O-])cc([N+](=O)[O-])cc2[N+](=O)[O-])c1`: the inhibition was inactive: 8.77%.
In the case of `CP(=O)(Nc1cccc(Br)c1)Oc1ccccc1` (configuration not stated), the inhibition is inactive: 16.6%.
The figure for `Cc1cc(C)cc(OP(C)(=O)Nc2ccccn2)c1` (configuration not stated) is inactive: 17.7%.
Consider `Cc1ccc(C)c(NP(C)(=O)Oc2ccccc2)c1` (configuration not stated), for which the inhibition is inactive: 16.8%.
The figure for `Cc1cc(C)cc(OP(C)(=O)Nc2ccc(C)cc2C)c1` (configuration not stated) is inactive: 1.38%; for `CCOC(=O)c1ccc(NP(C)(=O)Oc2cc(C)cc(C)c2)cc1` (configuration not stated) it is inactive: -1.77%; for `COc1ccccc1OP(C)(=O)Nc1cccc(Br)c1` (configuration not stated) it is inactive: 13.6%.
For `Cc1nc2ccc3ccccc3c2s1.O=[N+]([O-])c1cc([N+](=O)[O-])c(O)c([N+](=O)[O-])c1` the value was inactive: -12.4%; for `O=[N+]([O-])c1cc([N+](=O)[O-])c(-c2cnn(-c3ccccc3)c2)c([N+](=O)[O-])c1`, inactive: 1.96%.
For `O=[N+]([O-])c1cc([N+](=O)[O-])c(-n2nnc3ccccc32)c([N+](=O)[O-])c1` the value was inactive: 8.84%; for `CP(=O)(Nc1ccc(SC(F)(F)F)cc1)Oc1ccccc1` (configuration not stated), inactive: 5.46%.
For `CCCOc1ccc(NP(C)(=O)Oc2ccc(Cl)cc2)cc1` (configuration not stated), the inhibition is inactive: 12.4%.
Turning to `COc1ccccc1OP(C)(=O)Nc1c(C)cccc1C` (configuration not stated), the inhibition was inactive: -11.7%.
For `CN1CCCCC1COC(=O)C1(O)c2ccccc2CCc2ccccc21` (configuration not stated), the inhibition was inactive: 10.8%.
Turning to `O=[N+]([O-])c1cc([N+](=O)[O-])c(Nc2nnnn2CCO)c([N+](=O)[O-])c1`, the inhibition was inactive: 10.7%.
The figure for `CC1=C2N=C(C=C3N=C(C(C)=C4[N-][C@@](C)([C@@H]5N=C1[C@](C)(CCC(=O)NC[C@@H](C)OP(=O)([O-])O[C@H]1[C@@H](O)[C@@H](n6cnc7cc(C)c(C)cc76)O[C@@H]1CO)[C@H]5CC(N)=O)[C@@](C)(CC(N)=O)[C@@H]4CCC(N)=O)[C@@](C)(CC(N)=O)[C@@H]3CCC(N)=O)C(C)(C)[C@@H]2CCC(N)=O.[C-]#N.[Co+3]` is inactive: 20.9%; for `CCOC(=O)C(CC)C1=NC(C)(C)Cc2ccccc21.O=[N+]([O-])c1cc([N+](=O)[O-])c(O)c([N+](=O)[O-])c1` (configuration not stated) it is inactive: -2.87%; for `COc1ccccc1OP(C)(=O)Nc1ccccc1` (configuration not stated) it is inactive: -11.1%.
For `CP(=O)(Nc1ccccc1Br)Oc1ccccc1` (configuration not stated) the value was inactive: 1.38%.
For `CP(=S)(Nn1cnnc1)Oc1ccccc1` (configuration not stated) the value was inactive: -23.4%; for `CP(=O)(Nc1ccccn1)Oc1ccc(Cl)cc1` (configuration not stated), inactive: 16.5%.
With `CCOP(C)(=S)SCC(=O)NC(C)C(=O)O` (configuration not stated), the inhibition was inactive: 7.45%.
`CCOC(=O)c1ccc(NP(C)(=O)Oc2ccc(OC)cc2)cc1` (configuration not stated): the inhibition is inactive: -14.8%.
For `O=[N+]([O-])c1cc([N+](=O)[O-])c(O)c([N+](=O)[O-])c1.c1ccc(Oc2ccncc2)cc1` the value was inactive: -8.67%.
The figure for `CCc1ccc(OP(C)(=O)N2CCN(c3ccc([N+](=O)[O-])cc3)CC2)cc1` (configuration not stated) is inactive: -52.3%; for `CP(=O)(NC(=O)Nc1ccccc1)Oc1ccccc1` (configuration not stated) it is inactive: 11.1%; for `Cc1cc(C)cc(OP(C)(=O)Nc2ccc(SC(F)(F)F)cc2)c1` (configuration not stated) it is inactive: 3.99%.
In the case of `Cc1cccc(C)c1OP(C)(=O)Nc1ccc(SC(F)(F)F)cc1` (configuration not stated), the inhibition was inactive: -34.5%.
The figure for `CP(=O)(Nc1ccc(SC(F)(F)F)cc1)Oc1ccc(Cl)cc1` (configuration not stated) is inactive: 9.04%; for `CP(=O)(Oc1ccccc1)OC(c1ccccc1)C(F)(F)F` (configuration not stated) it is inactive: 7.51%.
In the case of `CCN(CC)CCCOC(=O)C(O)(c1ccccc1)c1ccccc1`, the inhibition is inactive: 11.7%.
With `COc1ccccc1OP(C)(=O)Nc1cc(Cl)ccc1C` (configuration not stated), the inhibition is inactive: 3.29%.
As to `COc1ccc(OP(C)(=O)Nc2cccc(F)c2)cc1` (configuration not stated), the inhibition is inactive: 19.9%.
With `Cc1cc(C)cc(OP(C)(N)=O)c1` (configuration not stated), the inhibition was inactive: -8.12%.
Turning to `CCOC(=O)c1ccc(NP(C)(=O)Oc2ccccc2)cc1` (configuration not stated), the inhibition was inactive: 1.17%.
As for `COc1ccccc1OP(C)(=O)Nc1ccc(C)cc1` (configuration not stated), the inhibition was inactive: -5.92%.
For `Cc1ccc(NP(C)(=O)Oc2ccccc2)c(C)c1` (configuration not stated) the value was inactive: 11.2%.
For `CC(C)(C)c1ccc(OP(C)(=O)Nc2ccc(SC(F)(F)F)cc2)cc1` (configuration not stated) the value was inactive: 9.45%; for `Cc1cccc(C)c1OP(C)(N)=O` (configuration not stated), inactive: 4.89%.
For `O=[N+]([O-])c1cc([N+](=O)[O-])c(Nc2cccnc2)c([N+](=O)[O-])c1` the value was inactive: 17.2%.
